Earlier results on 1 compound are cited in US8148404B2, “Modulators of CB1 receptors” (7TM Pharma A/S, priority 2006, dated 2012).

The chains behind the UniProt entries cited, without tags or fusion partners.
UniProt P47746, whole entry: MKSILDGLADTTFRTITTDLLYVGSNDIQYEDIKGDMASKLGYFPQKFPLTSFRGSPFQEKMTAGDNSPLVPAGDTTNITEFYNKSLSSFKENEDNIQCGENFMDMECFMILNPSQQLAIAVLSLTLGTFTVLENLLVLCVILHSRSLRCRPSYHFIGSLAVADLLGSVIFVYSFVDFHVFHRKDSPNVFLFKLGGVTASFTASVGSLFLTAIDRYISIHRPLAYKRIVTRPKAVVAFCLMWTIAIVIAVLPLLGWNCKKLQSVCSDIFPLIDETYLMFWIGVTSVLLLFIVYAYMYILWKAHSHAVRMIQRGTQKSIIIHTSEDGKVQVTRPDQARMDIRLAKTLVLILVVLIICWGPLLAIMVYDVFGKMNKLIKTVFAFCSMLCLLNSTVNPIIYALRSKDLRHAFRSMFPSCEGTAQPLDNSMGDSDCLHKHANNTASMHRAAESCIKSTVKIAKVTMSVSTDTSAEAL

For this series, the target named is CB1 (cannabinoid receptor 1) (Mus musculus, UniProt P47746). The settings on record: mice, charcoal transit, R-(+)-WIN 55,212 challenge; cited from earlier work.

As for `Cc1c(C(=O)NN2CCCCC2)nn(-c2ccc(Cl)cc2Cl)c1-c1ccc(Cl)cc1` [Rimonabant], the “effect on gastrointestinal transit in the model” value was “clear dose dependent effect”.
